Assays:
recombinant human BACE1 [1] = molecular target: recombinant human BACE1 (Homo sapiens, UniProt P56817); assay: β-Secretase (BACE1) enzyme inhibition FRET assay; type: biochemical; conditions: Table 12
Protocol: (§1) The enzymatic inhibition activity assays were determined using the fluorescence resonance energy transfer (FRET) assay. The assays were performed in a 384-well plate format. […] CatD and CatE were activated by incubation in assay buffer (0.1 M NaOAc, 0.2 M NaCl, pH 3.5) at room temperature for 30 min. Subsequently, the rhBACE-1 substrate (R&D Systems, catalog# ES004), the Cathepsin D and Cathepsin E substrate (R&D Systems, Catalog # ES001) were added accordingly to final concentration 20 μM to initiate the reaction. After 60 min incubation at room temperature, the time-resolved fluorescence at Ex/Em=360 nm/460 nm was measured on an EnVision multilabel plate reader (Perkin-Elmer). The analytical software, GraphPad Prism 5.0 (GraphPad Software, Inc., USA) was used to generate IC50 values via non-linear regression analysis, which are reported in Tables 8-13 below as BACE1 IC50 values.

The chains behind the UniProt entries cited, without tags or fusion partners. Residues count along the entry.
UniProt P56817, 46-501 limits assumed: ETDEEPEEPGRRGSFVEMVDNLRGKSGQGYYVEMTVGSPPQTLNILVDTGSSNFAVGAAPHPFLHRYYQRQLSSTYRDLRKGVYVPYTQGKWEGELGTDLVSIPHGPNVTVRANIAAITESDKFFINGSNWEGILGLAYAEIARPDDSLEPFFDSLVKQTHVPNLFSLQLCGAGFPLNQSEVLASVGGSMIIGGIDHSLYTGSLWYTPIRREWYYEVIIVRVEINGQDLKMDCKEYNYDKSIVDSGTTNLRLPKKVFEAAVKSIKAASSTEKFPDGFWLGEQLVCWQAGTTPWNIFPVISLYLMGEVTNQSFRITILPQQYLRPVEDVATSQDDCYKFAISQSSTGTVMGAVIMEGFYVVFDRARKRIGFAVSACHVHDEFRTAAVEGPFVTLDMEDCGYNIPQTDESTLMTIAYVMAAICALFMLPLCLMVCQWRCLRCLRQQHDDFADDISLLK

recombinant human BACE1 [2] = assay: β-Secretase (BACE1) enzyme inhibition FRET assay; type: biochemical
Protocol: as §1

Structure (SMILES): COc1cccc(-c2cccc(C3(C4CC4)NC(=N)N(C)C3=O)c2)c1 (stereo not shown) [Example 330, 5-cyclopropyl-2-imino-5-[3-(3-methoxyphenyl)-phenyl]-3-methyl-imidazolidin-4-one]
- IC50 (recombinant human BACE1 [1]): 0.278 µM
- BACE1/PM2 Ratio (recombinant human BACE1 [2]): 0.370

Structure (SMILES): COc1cccc(-c2cccc(C3(c4ccccc4)NC(=N)N(C)C3=O)c2)c1 (stereo not shown) [Example 327, 2-imino-5-[3-(3-methoxyphenyl)phenyl]-3-methyl-5-phenyl-imidazolidin-4-one]
- IC50 (recombinant human BACE1 [1]): 0.392 µM
- BACE1/PM2 Ratio (recombinant human BACE1 [2]): 1.6

Reference: US9353089B2, “Compositions and methods for the treatment of malaria” (Saint Louis University, priority 2013, dated 2016)
